Measurements reported in paper PMC3631511.

Tests used:
[1] = biological target: ΔE22-Aβ_(1-39) (Japanese mutant Aβ); test: sedimentation with reverse phase HPLC of the supernatant
[2] = biological target: wild-type Aβ_(1-40); test: critical concentration

Row | Substance | k (first-order rate constant of the loss of soluble peptide in the 1:1 mixture) [1] | critical concentration (Cr) [2]
1 | wild-type Aβ_(1-40) (peptide) | 0.08 h⁻¹ | –
2 | wild-type Aβ_(1-40) (peptide; other documents disagree on this pair) | – | 2.89 µM
